According to PMC4005819:

Key:
N[C@@H](CO)C(=O)O = test: purified protein; settings: co-substrate homocysteine (standard assay 40 mM D,L-homocysteine), 0.4 mM PLP, Tris-HCl pH 8.4, 37°C, 45 min
N[C@@H](CCS)C(=O)O = test: purified protein; settings: co-substrate L-serine (standard assay 20 mM), D,L-homocysteine used in assay method, 0.4 mM PLP, Tris-HCl pH 8.4, 37°C, 45 min

Substance: rTrCβS (recombinant T. rangeli cystathionine β-synthase) (Trypanosoma rangeli; T2A)
- Km (N[C@@H](CO)C(=O)O): 1.702 ± 0.11 mM
- Km (N[C@@H](CCS)C(=O)O): 7.301 ± 1.9 mM
